Protein sequences, listed by entry. Tags and fused reporters are not part of them. Lines headed by an entry give the natural chain unless they say otherwise; changes in a name come on top.
UniProt Q06187: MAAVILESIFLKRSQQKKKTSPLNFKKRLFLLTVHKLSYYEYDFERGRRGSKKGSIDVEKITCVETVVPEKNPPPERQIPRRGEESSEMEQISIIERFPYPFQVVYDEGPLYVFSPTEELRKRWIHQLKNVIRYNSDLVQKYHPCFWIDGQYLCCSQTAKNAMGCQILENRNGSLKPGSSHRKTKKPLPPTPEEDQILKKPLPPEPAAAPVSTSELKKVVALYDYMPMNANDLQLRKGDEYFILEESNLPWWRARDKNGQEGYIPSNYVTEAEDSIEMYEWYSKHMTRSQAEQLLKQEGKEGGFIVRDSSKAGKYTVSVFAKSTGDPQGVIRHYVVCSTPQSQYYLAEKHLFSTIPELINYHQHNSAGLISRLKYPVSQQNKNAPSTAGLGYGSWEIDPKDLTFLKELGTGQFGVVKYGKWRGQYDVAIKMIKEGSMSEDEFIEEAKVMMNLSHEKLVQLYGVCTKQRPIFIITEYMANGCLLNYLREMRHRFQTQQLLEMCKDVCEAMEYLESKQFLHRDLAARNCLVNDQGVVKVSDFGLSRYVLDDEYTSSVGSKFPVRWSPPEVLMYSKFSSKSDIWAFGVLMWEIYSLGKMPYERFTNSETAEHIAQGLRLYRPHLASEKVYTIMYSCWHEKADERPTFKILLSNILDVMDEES

This experiment has as its target human recombinant Btk (Homo sapiens (Human), UniProt Q06187). Briefly: Btk enzymatic activity assay (Caliper-based kinase assay). The format is biochemical. The note with it: human recombinant Btk 2 nM, ATP 40 μM, peptide substrate 1 μM, room temperature 3 h.
For orientation: IC50 means the concentration that gives 50% inhibition. For the molecule `Cc1c(-c2ccc(Oc3ccccc3)cc2F)c2c(N)ncnc2n1C[C@@H]1CCCN1C(=O)C(C#N)=CC1CC1` [Cpd 65B, (S)-2-(2-((4-amino-5-(2-fluoro-4-phenoxyphenyl)-6-methyl-7H-pyrrolo[2,3-d]pyrimidin-7-yl)methyl)pyrrolidine-1-carbonyl)-3-cyclopropylacrylonitrile], the IC50 was 56 nM.

For the molecule `Cc1c(-c2ccc(Oc3ccccc3)cc2)c2c(N)ncnc2n1C[C@@H]1CCCN1C(=O)/C(C#N)=C\C(C)(C)N(C)C` [Cpd 77B, (S)-2-(2-((4-amino-6-methyl-5-(4-phenoxyphenyl)-7H-pyrrolo[2,3-d]pyrimidin-7-yl)methyl)pyrrolidine-1-carbonyl)-4-(dimethylamino)-4-methylpent-2-enenitrile], the IC50 came to 7 nM.

On to `CNC(C)(C)C=C(C#N)C(=O)N1CCC[C@H]1Cn1nc(-c2ccc(Oc3ccccc3)cc2F)c2c(N)ncnc21` [Cpd 83B, (S)-2-(2-((4-amino-3-(2-fluoro-4-phenoxyphenyl)-1H-pyrazolo[3,4-d]pyrimidin-1-yl)methyl)pyrrolidine-1-carbonyl)-4-methyl-4-(methylamino)pent-2-enenitrile], for which the half-maximal inhibitory concentration (IC50) was found to be 16 nM.

Regarding `CN(C)C(C)(C)C=C(C#N)C(=O)N1CCC[C@@H]1Cn1nc(-c2ccc(Oc3ccccc3)cc2F)c2c(N)ncnc21` [Cpd 84A, (R)-2-(2-((4-amino-3-(2-fluoro-4-phenoxyphenyl)-1H-pyrazolo[3,4-d]pyrimidin-1-yl)methyl)pyrrolidine-1-carbonyl)-4-(dimethylamino)-4-methylpent-2-enenitrile], the IC50 amounted to 3.6 nM.

For the origin of these results see patent US9572811B2, “Treatment of dry eye” (PRINCIPIA BIOPHARMA INC., priority 2012, dated 2017).
